Earlier results on 1 compound are cited in patent US10596162B2 (WYETH LLC, priority 2005, dated 2020).

In the series the test system is NCI-H1650 cells (delE746-A750 EGFR). To be noted: cited from earlier work.

Turning to `COc1cc2ncnc(Nc3ccc(F)c(Cl)c3)c2cc1OCCCN1CCOCC1` [gefitinib, Gefitinib, reference compound], the “increased sensitivity to gefitinib compared with some NSCLC lines expressing wild-type EGFR” value is 100 fold.
